Laboratory results: patent publication US20090192095A1 (priority 2008, published 2009)

Test system: opioid receptors
Test: Assessment of reduction in intrinsic opioid binding activity by structural analogy
Conditions: predicted by analogy with oxymorphone valine carbamate, structural overlay

CO[C@]12CC[C@@]3(C[C@@H]1[C@@](C)(O)C(C)(C)C)[C@H]1Cc4ccc(OC(=O)NC(C(=O)O)C(C)C)c5c4[C@@]3(CCN1CC1CC1)[C@H]2O5 (stereo partly shown)
opioid binding activity in comparison with the parent drug: much less opioid binding activity
